pKd: −log10 of the molar value.
Legend:
Calmodulin = Calmodulin (UniProt P0DP23); details: cited from earlier work
[1] = biological target: Calmodulin (CaM), endogenous in HT-22 cells (mouse (endogenous in HT-22)) (UniProt P0DP26); test: FRET or BRET; FRET imaging of fixed and permeabilized HT-22 cells stained with rabbit anti-CaM and anti-rabbit IgG-Alexa488 (donor), then 50 or 100 nM Aβ(1-42)*555 (acceptor) for 15 min at RT in PBS; ratio of red/green fluorescence per pixel

Substance | pKd (Calmodulin) | fold increase in the red/green fluorescence intensity ratio (FRET) at 50 nM Aβ(1-42)*555 [1] [fold] | fold increase in the red/green fluorescence intensity ratio (FRET) at 100 nM Aβ(1-42)*555 [1] [fold]
Amyloid-β (from UniProt P05067) | 9.00 | – | –
Human Aβ(1-42)-HiLyte™-Fluor555 (from UniProt P05067 672-713) (peptide; HiLyte Fluor555 label (position not stated); other documents disagree on this pair) | – | 3.4 | 6.9

Source: article PMC9604325, “Internalized Amyloid-β (1-42) Peptide Inhibits the Store-Operated Calcium Entry in HT-22 Cells” (International Journal of Molecular Sciences, 2022)
